Tested on: total cholinesterase activity in the brain
Assay: Total cholinesterase activity in brain homogenate after i.p. injection
Format: in vivo, rat
Details: 2 mg/kg i.p., brain 3 hours after injection
Method: Male Wistar rats were injected intraperitoneally (i.p.) with rivastigmine or with compounds of the invention. […] Animals were decapitated 3 hours after injection and the brains rapidly removed. The brain tissue was diced into small pieces, placed on ice and immediately homogenized with a Polytron PT1200 (Kinematic AG) in 10 ml ice cold Tris with 0.1% Triton-X and protease inhibitors. The protease inhibitors in the extraction buffer were Antipain (10 μM), Aprotinin (5 TIU/mg protein), Bestatin ([…]), Leupeptin (10 μM) and Pepstatin (1 μM). The final dilution of the homogenate in the final assay mixture was 120-fold.
Total cholinesterase activity was determined by a modification of the colorimetric method of Ellmann, et al. (Biochem. Pharmacol., 7:88-95 (1961)), as described above. Hydrolysis of acetylthiocholine was monitored indirectly by measurement of the formation of the conjugate between thiocholine and DTNB. Optical density at 405 nm was recorded during five (5) minutes employing a microplate spectrophotometer (Polarstar, BMG Labtech), and plotted against time. The initial rates were calculated from the slope of the linear portion of the graph.
Cholinesterase activity was normalized for protein content of the homogenate. […]

Structure (SMILES): CCN(C)C(=O)Oc1cccc([C@H](C)N(C)C)c1 [Compound 1, S-rivastigmine, reference compound]
- ChE inhibition: 15%
